Each compound was assayed against mammalian target of rapamycin (mTOR) (Homo sapiens (Human), UniProt P42345). Settings: read-out: mTOR IC50.
For `COc1ccc(Nc2ncc(CN3CCN(S(C)(=O)=O)C[C@H]3C)cc2-c2nc(C)nc(N)n2)cn1` [Example 158, (R)-4-(2-(6-Methoxypyridin-3-Ylamino)-5-((2-Methyl-4-(Methylsulfonyl)Piperazin-1-yl)Methyl)Pyridin-3-yl)-6-Methyl-1,3,5-Triazin-2-Amine], the IC50 was 3.28 µM. With `COc1ncc(Nc2ncc(CN3CCN(C(=O)N(C)C)CC3)cc2-c2nc(C)nc(N)n2)cc1F` [Example 159, 4-((5-(4-Amino-6-Methyl-1,3,5-Triazin-2-yl)-6-(5-Fluoro-6-Methoxypyridin-3-Ylamino)Pyridin-3-yl)Methyl)-N,N-Dimethylpiperazine-1-Carboxamide] the IC50 was greater than 10 µM. Compound `Cc1nc(N)nc(-c2cc(CN3CCN(C(=O)N(C)C)CC3)cnc2Nc2cnc(O)c(F)c2)n1` [Example 160, 4-((5-(4-Amino-6-Methyl-1,3,5-Triazin-2-yl)-6-(5-Fluoro-6-Hydroxypyridin-3-Ylamino)Pyridin-3-yl)Methyl)-N,N-Dimethylpiperazine-1-Carboxamide] has an IC50 greater than 10 µM. With `Cc1nc(N)nc(-c2cc(CN3CCN(S(C)(=O)=O)CC3)cnc2Nc2cnc(O)c(F)c2)n1` [Example 161, 5-(3-(4-Amino-6-Methyl-1,3,5-Triazin-2-yl)-5-((4-(Methylsulfonyl)Piperazin-1-yl)Methyl)Pyridin-2-Ylamino)-3-Fluoropyridin-2-ol] the IC50 was greater than 10 µM. `CNc1nc(C)nc(-c2cc(CN3CCN(S(C)(=O)=O)CC3)cnc2Nc2ccc(OC)nc2)n1` [Example 163, 4-(2-(6-Methoxypyridin-3-Ylamino)-5-((4-(Methylsulfonyl)Piperazin-1-yl)Methyl)Pyridin-3-yl)-N,6-Dimethyl-1,3,5-Triazin-2-Amine] showed an IC50 greater than 10 µM. Work on `Cc1nc(N)nc(-c2cccnc2Nc2cccc(OC(F)F)c2)n1` [Example 164, 4-(2-(3-(Difluoromethoxy)Phenylamino)Pyridin-3-yl)-6-Methyl-1,3,5-Triazin-2-Amine] yielded an IC50 greater than 10 µM. In the case of `Cc1nc(N)nc(-c2cccnc2Nc2ccc3oc(C)nc3c2)n1` [Example 165, N-(3-(4-Amino-6-Methyl-1,3,5-Triazin-2-yl)Pyridin-2-yl)-2-Methylbenzo[D]Oxazol-5-Amine], the IC50 is reported as greater than 10 µM. `COc1ccc(Nc2ncccc2-c2nc(C)nc(N)n2)cc1F` [Example 166, 4-(2-(3-Fluoro-4-Methoxyphenylamino)Pyridin-3-yl)-6-Methyl-1,3,5-Triazin-2-Amine] gave an IC50 greater than 10 µM. `COc1cc(Nc2ncccc2-c2nc(C)nc(N)n2)ccc1F` [Example 167, 4-(2-(4-Fluoro-3-Methoxyphenylamino)Pyridin-3-yl)-6-Methyl-1,3,5-Triazin-2-Amine] gave an IC50 greater than 10 µM. Compound `Cc1nc(N)nc(-c2cccnc2Nc2ccc3c(c2)OC(F)(F)O3)n1` [Example 168, 4-(2-(2,2-Difluorobenzo[D][1,3]Dioxol-5-Ylamino)Pyridin-3-yl)-6-Methyl-1,3,5-Triazin-2-Amine] has an IC50 greater than 10 µM. `COc1ccc(Nc2ncc(-c3ccc(OC)nc3)cc2-c2nc(C)nc(N)n2)cn1` [Example 169, 5-(4-Amino-6-Methyl-1,3,5-Triazin-2-yl)-6′-Methoxy-N-(6-Methoxypyridin-3-yl)-3,3′-Bipyridin-6-Amine] gave an IC50 greater than 10 µM. Work on `COc1ccc(Nc2ncccc2-c2nc(C)nc(N)n2)cc1OC` [Example 170, 4-(2-(3,4-Dimethoxyphenylamino)Pyridin-3-yl)-6-Methyl-1,3,5-Triazin-2-Amine] yielded an IC50 greater than 10 µM. `Cc1ccc2cc(Nc3ncccc3-c3nc(C)nc(N)n3)ccc2n1` [Example 171, N-(3-(4-Amino-6-Methyl-1,3,5-Triazin-2-yl)Pyridin-2-yl)-2-Methylquinolin-6-Amine] showed an IC50 greater than 10 µM. Work on `COc1ccc(Nc2ncc(-c3ccccn3)cc2-c2nc(C)nc(N)n2)cn1` [Example 172, 5′-(4-Amino-6-Methyl-1,3,5-Triazin-2-yl)-N-(6-Methoxypyridin-3-yl)-2,3′-Bipyridin-6′-Amine] yielded an IC50 greater than 10 µM. In the case of `COc1ncc(Nc2ncccc2-c2nc(C)nc(N)n2)cc1Cl` [Example 173, 4-(2-(5-Chloro-6-Methoxypyridin-3-Ylamino)Pyridin-3-yl)-6-Methyl-1,3,5-Triazin-2-Amine], the IC50 is reported as greater than 10 µM. `Cc1cncc(Nc2ncccc2-c2nc(C)nc(N)n2)c1` [Example 174, 4-Methyl-6-(2-(5-Methylpyridin-3-Ylamino)Pyridin-3-yl)-1,3,5-Triazin-2-Amine] was tested, and the IC50 was greater than 10 µM. `COc1ncc(Nc2nc(-c3ccncc3)ccc2-c2nc(C)nc(N)n2)cc1F` [Example 175, 5-(4-Amino-6-Methyl-1,3,5-Triazin-2-yl)-N-(5-Fluoro-6-Methoxypyridin-3-yl)-2,4′-Bipyridin-6-Amine] was tested, and the IC50 was greater than 10 µM. `COc1ncc(Nc2ncc(C(=O)N3CCC(O)CC3)cc2-c2nc(C)nc(N)n2)cc1F` [Example 176, (5-(4-amino-6-methyl-1,3,5-triazin-2-yl)-6-(5-fluoro-6-methoxypyridin-3-ylamino)pyridin-3-yl)(4-hydroxypiperidin-1-yl)methanone] gave an IC50 greater than 10 µM. For `COc1ccc(Nc2ncc(CN3CCN(S(C)(=O)=O)CC3)cc2-c2cc(N)nc(C)n2)cn1` [Example 178, 6-(2-(6-Methoxypyridin-3-Ylamino)-5-((4-(Methylsulfonyl)Piperazin-1-yl)Methyl)Pyridin-3-yl)-2-Methylpyrimidin-4-Amine], the IC50 was greater than 10 µM. With `COc1ccc(Nc2ncc(CO)cc2-c2nc(C)nc(N)n2)cn1` [Example 179, (5-(4-Amino-6-Methyl-1,3,5-Triazin-2-yl)-6-(6-Methoxypyridin-3-Ylamino)Pyridin-3-yl)Methanol] the IC50 was 2.48 µM. Work on `Cc1nc(N)cc(-c2nc3ccccc3nc2Nc2cccc3[nH]ncc23)n1` [Example 180, 3-(6-Amino-2-Methylpyrimidin-4-yl)-N-(1H-Indazol-4-yl)Quinoxalin-2-Amine] yielded an IC50 greater than 10 µM. Work on `CC(=O)Nc1ccc(Nc2ncccc2-c2nc(C)nc3[nH]cnc23)cc1Cl` [Example 181, N-(2-Chloro-4-(3-(2-Methyl-9H-Purin-6-yl)Pyridin-2-Ylamino)Phenyl)Acetamide] yielded an IC50 greater than 10 µM. `Cc1nc(-c2cccnc2Nc2ccc(NC(=O)C3CC3)cc2)c2nc[nH]c2n1` [Example 182, N-(4-(3-(2-Methyl-9H-Purin-6-yl)Pyridin-2-Ylamino)Phenyl)Cyclopropanecarboxamide] showed an IC50 of 0.05 µM. `COc1cncc(Nc2ncccc2-c2nc(C)nc3[nH]cnc23)c1` [Example 183, N-(5-Methoxypyridin-3-yl)-3-(2-Methyl-9H-Purin-6-yl)Pyridin-2-Amine] was tested, and the IC50 was greater than 10 µM. Work on `COc1ccc(Nc2ncc(Cl)cc2-c2nc(C)nc(N)n2)cn1` [Example 184, 4-(5-Chloro-2-(6-Methoxypyridin-3-Ylamino)Pyridin-3-yl)-6-Methyl-1,3,5-Triazin-2-Amine] yielded an IC50 greater than 10 µM. `COc1ncc(Nc2ncc(F)cc2-c2nc(C)nc(N)n2)cc1F` [Example 185, 4-(5-Fluoro-2-(5-Fluoro-6-Methoxypyridin-3-Ylamino)Pyridin-3-yl)-6-Methyl-1,3,5-Triazin-2-Amine] was tested, and the IC50 was greater than 10 µM. `Cc1nc(N)nc(-c2cc(F)cnc2Nc2cncc(F)c2)n1` [Example 186, 4-(5-Fluoro-2-(5-Fluoropyridin-3-Ylamino)Pyridin-3-yl)-6-Methyl-1,3,5-Triazin-2-Amine] gave an IC50 greater than 10 µM. For `COc1ncc(Nc2ncc(C=O)cc2-c2nc(C)nc(N)n2)cc1F` [Example 187, 5-(4-Amino-6-Methyl-1,3,5-Triazin-2-yl)-6-(5-Fluoro-6-Methoxypyridin-3-Ylamino)Nicotinaldehyde], the IC50 was greater than 10 µM. `Cc1nc(N)nc(-c2cc(Cl)cnc2NC2CCOCC2)n1` [Example 188, 4-(5-Chloro-2-(Tetrahydro-2H-Pyran-4-Ylamino)Pyridin-3-yl)-6-Methyl-1,3,5-Triazin-2-Amine] showed an IC50 greater than 10 µM. For `COCCNc1nc(C)nc(-c2cc(Cl)cnc2Nc2cnc(OC)c(F)c2)n1` [Example 189, 4-(5-Chloro-2-(5-Fluoro-6-Methoxypyridin-3-Ylamino)Pyridin-3-yl)-N-(2-Methoxyethyl)-6-Methyl-1,3,5-Triazin-2-Amine], the IC50 was greater than 10 µM. With `Cc1nc(N)nc(-c2cccnc2Nc2ccc(NC(=O)Nc3cccc(F)c3)nc2)n1` [Example 191, 1-(5-(3-(4-Amino-6-Methyl-1,3,5-Triazin-2-yl)Pyridin-2-Ylamino)Pyridin-2-yl)-3-(3-Fluorophenyl)Urea] the IC50 was greater than 10 µM. For `Cc1nc(N)nc(-c2cccnc2Nc2ccc(NC(=O)NC(C)C)nc2)n1` [Example 192, 1-(5-(3-(4-Amino-6-Methyl-1,3,5-Triazin-2-yl)Pyridin-2-Ylamino)Pyridin-2-yl)-3-Isopropylurea], the IC50 was greater than 10 µM. `CC(=O)Nc1ccc(Nc2ncc(Cl)cc2-c2nc(C)nc(N)n2)cn1` [Example 193, N-(5-(3-(4-Amino-6-Methyl-1,3,5-Triazin-2-yl)-5-Chloropyridin-2-Ylamino)Pyridin-2-yl)Acetamide] was tested, and the IC50 was greater than 10 µM. `COC(=O)Nc1ccc(Nc2ncc(Cl)cc2-c2nc(C)nc(N)n2)cn1` [Example 194, Methyl 5-(3-(4-Amino-6-Methyl-1,3,5-Triazin-2-yl)-5-Chloropyridin-2-Ylamino)Pyridin-2-Ylcarbamate] gave an IC50 greater than 10 µM. `COCCOc1ccc(NC(=O)Nc2ccc(Nc3ncc(Cl)cc3-c3nc(C)nc(N)n3)cn2)cc1` [Example 195, 1-(5-(3-(4-Amino-6-Methyl-1,3,5-Triazin-2-yl)-5-Chloropyridin-2-Ylamino)Pyridin-2-yl)-3-(4-(2-Methoxyethoxy)Phenyl)Urea] showed an IC50 greater than 10 µM. `CC(=O)Nc1ccc(Nc2ncc(CN3CCN(S(C)(=O)=O)CC3)cc2-c2nc(C)nc(N)n2)cn1` [Example 196, N-(5-(3-(4-Amino-6-Methyl-1,3,5-Triazin-2-yl)-5-((4-(Methylsulfonyl)Piperazin-1-yl)Methyl)Pyridin-2-Ylamino)Pyridin-2-yl)Acetamide] gave an IC50 of 1.11 µM. With `COc1ncc(Nc2nc(C)ccc2-c2nc(C)nc(N)n2)cc1F` [Example 197, 4-(2-(5-Fluoro-6-Methoxypyridin-3-Ylamino)-6-Methylpyridin-3-yl)-6-Methyl-1,3,5-Triazin-2-Amine] the IC50 was greater than 10 µM. Work on `COc1ncc(Nc2nc(CN3CCOCC3)ccc2-c2nc(C)nc(N)n2)cc1F` [Example 198, 4-(2-(5-Fluoro-6-Methoxypyridin-3-Ylamino)-6-(Morpholinomethyl)Pyridin-3-yl)-6-Methyl-1,3,5-Triazin-2-Amine] yielded an IC50 greater than 10 µM.

Reference: US8772480B2, “Inhibitors of PI3 kinase and/or mTOR” (priority 2009, dated 2014)
